Data: article PMC3017799 (Molecular Vision, 2011)

Molecular target: the molecule itself
Test: SEC; 100 ug protein at 1 mg/ml injected into a TSK-G5000PWXL column; 50 mM phosphate, 150 mM NaCl, pH 7.2

B1: wild-type αA-crystallin (natural protein, human, UniProt P02489 1-173, looked up)
chain: MDVTIQHPWFKRTLGPFYPSRLFDQFFGEGLFEYDLLPFLSSTISPYYRQSLFRTVLDSGISEVRSDRDKFVIFLDVKHFSPEDLTVKVQDDFVEIHGKHNERQDDHGYISREFHRRYRLPSNVDQSALSCSLSADGMLTFCGPKIQTGLDATHAERAIPVSREEKPTSAPSS
notes: human αA-crystallin, cDNA cloned into pET-23d(+); the protein was purified by gel filtration and ion exchange; It forms polydisperse oligomers and no subunit count is printed; also called wt αA-crystallin; source: E. coli BL21(DE3) pLysS, purified (Superdex 200 gel filtration, 6 M urea, anion exchange)
- binding result: binds
